Laboratory results published in ChEMBL document CHEMBL5316283, “Discovery of High-Affinity Small-Molecule Binders of the Epigenetic Reader YEATS4” (J Med Chem, 2023).

Chains of the proteins cited; added tags and fusions are not shown. Lines headed by an entry give the natural chain unless they say otherwise; changes in a name come on top.
UniProt P42568: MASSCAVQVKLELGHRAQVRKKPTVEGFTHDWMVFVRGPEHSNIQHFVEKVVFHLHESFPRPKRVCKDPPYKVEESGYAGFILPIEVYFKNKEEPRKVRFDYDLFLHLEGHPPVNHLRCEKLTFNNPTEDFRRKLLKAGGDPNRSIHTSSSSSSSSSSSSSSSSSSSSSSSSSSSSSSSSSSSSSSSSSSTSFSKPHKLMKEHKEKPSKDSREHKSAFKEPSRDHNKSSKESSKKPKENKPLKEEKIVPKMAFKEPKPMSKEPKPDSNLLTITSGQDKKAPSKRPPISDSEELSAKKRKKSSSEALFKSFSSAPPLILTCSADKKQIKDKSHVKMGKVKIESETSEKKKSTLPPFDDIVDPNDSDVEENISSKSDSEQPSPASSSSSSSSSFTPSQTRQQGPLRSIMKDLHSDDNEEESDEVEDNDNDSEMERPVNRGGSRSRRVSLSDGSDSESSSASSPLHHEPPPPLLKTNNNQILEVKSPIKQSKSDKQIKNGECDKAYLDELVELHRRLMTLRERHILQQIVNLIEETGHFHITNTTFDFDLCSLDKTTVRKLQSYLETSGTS
UniProt Q12809: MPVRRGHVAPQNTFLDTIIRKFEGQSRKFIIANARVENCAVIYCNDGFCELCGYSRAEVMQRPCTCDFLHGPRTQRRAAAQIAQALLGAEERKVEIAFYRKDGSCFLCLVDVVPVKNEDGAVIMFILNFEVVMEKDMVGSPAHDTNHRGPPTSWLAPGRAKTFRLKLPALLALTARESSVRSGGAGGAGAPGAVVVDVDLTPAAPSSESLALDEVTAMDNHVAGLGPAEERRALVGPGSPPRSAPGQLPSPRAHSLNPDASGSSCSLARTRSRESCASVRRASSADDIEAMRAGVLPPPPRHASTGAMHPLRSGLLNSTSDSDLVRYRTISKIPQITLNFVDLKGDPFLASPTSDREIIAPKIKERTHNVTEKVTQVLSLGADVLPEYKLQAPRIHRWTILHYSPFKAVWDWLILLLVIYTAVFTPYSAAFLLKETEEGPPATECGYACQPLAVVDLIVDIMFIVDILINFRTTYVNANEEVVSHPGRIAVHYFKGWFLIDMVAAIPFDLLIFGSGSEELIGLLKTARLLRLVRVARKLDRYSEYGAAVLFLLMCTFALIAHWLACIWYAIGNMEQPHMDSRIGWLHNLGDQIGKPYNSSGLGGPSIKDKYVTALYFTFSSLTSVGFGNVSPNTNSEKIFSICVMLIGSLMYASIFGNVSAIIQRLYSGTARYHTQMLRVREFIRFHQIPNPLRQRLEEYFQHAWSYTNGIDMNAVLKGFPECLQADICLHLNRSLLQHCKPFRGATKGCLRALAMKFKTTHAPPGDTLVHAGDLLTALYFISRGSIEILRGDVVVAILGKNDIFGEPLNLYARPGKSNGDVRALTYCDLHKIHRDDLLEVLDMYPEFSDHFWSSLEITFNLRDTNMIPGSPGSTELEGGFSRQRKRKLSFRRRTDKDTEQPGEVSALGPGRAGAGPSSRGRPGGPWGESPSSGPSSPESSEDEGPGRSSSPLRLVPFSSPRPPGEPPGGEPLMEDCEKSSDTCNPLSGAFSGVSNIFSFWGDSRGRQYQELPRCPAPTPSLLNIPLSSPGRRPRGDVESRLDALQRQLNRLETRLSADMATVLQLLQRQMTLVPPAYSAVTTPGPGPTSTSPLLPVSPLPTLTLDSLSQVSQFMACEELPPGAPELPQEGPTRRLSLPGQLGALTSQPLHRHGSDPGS
UniProt Q9ULM3: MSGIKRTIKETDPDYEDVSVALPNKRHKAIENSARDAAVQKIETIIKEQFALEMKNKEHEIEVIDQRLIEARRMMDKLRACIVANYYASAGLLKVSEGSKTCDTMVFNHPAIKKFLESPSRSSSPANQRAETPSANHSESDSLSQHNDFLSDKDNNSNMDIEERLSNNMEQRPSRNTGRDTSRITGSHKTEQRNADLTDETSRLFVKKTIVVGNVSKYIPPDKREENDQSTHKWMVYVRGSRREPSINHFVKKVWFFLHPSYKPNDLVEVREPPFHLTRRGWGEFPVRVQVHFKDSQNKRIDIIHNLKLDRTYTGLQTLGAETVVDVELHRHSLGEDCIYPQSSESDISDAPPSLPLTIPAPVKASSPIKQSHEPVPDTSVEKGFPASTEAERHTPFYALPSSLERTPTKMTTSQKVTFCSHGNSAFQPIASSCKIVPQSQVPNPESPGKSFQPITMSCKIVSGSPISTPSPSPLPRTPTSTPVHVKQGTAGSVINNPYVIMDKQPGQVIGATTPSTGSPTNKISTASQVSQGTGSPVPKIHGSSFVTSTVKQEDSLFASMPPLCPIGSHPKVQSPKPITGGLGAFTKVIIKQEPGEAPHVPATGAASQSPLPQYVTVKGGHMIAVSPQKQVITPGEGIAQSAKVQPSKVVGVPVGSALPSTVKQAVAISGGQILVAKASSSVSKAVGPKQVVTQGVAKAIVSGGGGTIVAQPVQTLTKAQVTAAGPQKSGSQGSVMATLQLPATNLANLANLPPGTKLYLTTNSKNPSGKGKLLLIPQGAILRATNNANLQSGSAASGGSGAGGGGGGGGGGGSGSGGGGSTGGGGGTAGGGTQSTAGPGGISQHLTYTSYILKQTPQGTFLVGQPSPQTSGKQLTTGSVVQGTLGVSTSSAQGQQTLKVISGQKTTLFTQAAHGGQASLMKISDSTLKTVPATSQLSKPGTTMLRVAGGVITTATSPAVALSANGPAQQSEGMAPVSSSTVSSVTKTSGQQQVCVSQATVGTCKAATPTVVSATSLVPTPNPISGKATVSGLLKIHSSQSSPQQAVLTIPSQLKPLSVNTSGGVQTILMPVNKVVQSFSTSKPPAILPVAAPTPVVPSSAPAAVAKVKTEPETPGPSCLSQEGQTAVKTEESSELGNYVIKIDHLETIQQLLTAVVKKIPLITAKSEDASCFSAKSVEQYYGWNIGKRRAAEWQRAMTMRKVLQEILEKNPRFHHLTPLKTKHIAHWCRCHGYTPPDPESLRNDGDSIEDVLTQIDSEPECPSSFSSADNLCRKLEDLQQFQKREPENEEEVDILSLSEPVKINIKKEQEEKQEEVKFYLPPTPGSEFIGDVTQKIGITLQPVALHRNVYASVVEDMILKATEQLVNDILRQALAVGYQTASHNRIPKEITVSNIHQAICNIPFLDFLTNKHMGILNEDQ
UniProt O95619, whole entry, looked up: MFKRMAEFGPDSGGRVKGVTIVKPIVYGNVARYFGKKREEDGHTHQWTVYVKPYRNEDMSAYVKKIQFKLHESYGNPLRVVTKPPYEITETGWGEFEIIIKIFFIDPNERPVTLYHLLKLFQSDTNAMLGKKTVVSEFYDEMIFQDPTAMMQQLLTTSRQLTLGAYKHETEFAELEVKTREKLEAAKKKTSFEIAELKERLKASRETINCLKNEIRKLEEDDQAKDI
UniProt Q03111: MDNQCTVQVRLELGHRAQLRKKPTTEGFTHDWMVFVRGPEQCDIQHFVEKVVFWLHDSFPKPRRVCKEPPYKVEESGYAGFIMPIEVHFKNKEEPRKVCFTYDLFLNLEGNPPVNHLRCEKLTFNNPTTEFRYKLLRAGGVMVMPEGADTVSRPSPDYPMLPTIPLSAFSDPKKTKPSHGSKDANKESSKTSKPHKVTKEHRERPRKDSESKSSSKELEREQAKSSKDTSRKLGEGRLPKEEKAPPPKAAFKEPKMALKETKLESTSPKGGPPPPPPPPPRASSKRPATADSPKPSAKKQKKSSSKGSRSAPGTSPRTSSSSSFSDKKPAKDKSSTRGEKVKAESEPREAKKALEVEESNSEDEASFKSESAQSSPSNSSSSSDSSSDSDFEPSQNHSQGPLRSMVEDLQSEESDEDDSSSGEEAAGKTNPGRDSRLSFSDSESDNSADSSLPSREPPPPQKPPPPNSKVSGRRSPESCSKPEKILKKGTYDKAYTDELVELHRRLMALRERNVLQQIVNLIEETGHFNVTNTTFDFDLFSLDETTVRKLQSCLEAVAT

Experiments:
[1] = target: Protein AF-9 (Homo sapiens, UniProt P42568); assay: Binding affinity to human his-tagged recombinant YEATS3 expressed in Escherichia coli assessed as inhibition constant using biotin tagged lysine 27-crotonylated histone H3 peptide as substrate preincubated for 20 mins followed by substrate addition measured after 30 mins by FRET analysis
[2] = target: Voltage-gated inwardly rectifying potassium channel KCNH2 (Homo sapiens, UniProt Q12809); assay: Inhibition of hERG assessed as inhibition constant by patch-clamp assay; format: toxicity
[3] = target: YEATS domain-containing protein 2 (Homo sapiens, UniProt Q9ULM3); assay: Binding affinity to human his-tagged recombinant YEATS2 expressed in Escherichia coli assessed as inhibition constant using biotin tagged lysine 27-crotonylated histone H3 peptide as substrate preincubated for 20 mins followed by substrate addition measured after 30 mins by FRET analysis
[4] = Apparent permeability in dog RRCK cells; format: ADME, cell-based, Canis lupus familiaris; settings: mdckii-le
[5] = Cytotoxicity against human THLE cells assessed as inhibition of cell growth by CellTiter-Glo assay
[6] = target: YEATS domain-containing protein 4 (Homo sapiens, UniProt O95619); assay: Binding affinity to human his-tagged recombinant YEATS4 expressed in Escherichia coli assessed as inhibition constant using biotin tagged lysine 27-crotonylated histone H3 peptide as substrate preincubated for 20 mins followed by substrate addition measured after 30 mins by FRET analysis
[7] = Intrinsic clearance in human hepatocytes assessed per million cells; format: ADME, cell-based, Hepatocyte
[8] = target: Protein ENL (Homo sapiens, UniProt Q03111); assay: Binding affinity to human his-tagged recombinant YEATS1 expressed in Escherichia coli assessed as inhibition constant using biotin tagged lysine 27-crotonylated histone H3 peptide as substrate preincubated for 20 mins followed by substrate addition measured after 30 mins by FRET analysis
[9] = Lipophilicity, logD of the compound by shake flask method; format: physicochemical; settings: octanol/water

SMILES: CCNC(=O)c1ccc2c(c1)[nH]c(=O)n2C1CCN(C[C@@H](O)c2ccc(Cl)cc2)CC1
- Ki [1]: 1.5 µM
- Ki [2]: 4.6 µM
- Ki [3]: 6 µM
- Papp [4]: 0.055 ×10⁻⁶ cm/s
- IC50 [5]: 88 µM
- Ki [6]: 0.54 µM
- CLH (uL/min/1e6 cells) [7]: 6.9
- Ki [8]: 1.3 µM
- logD [9]: 2.7
